Reference: patent US9758483B2, “Pyridone amides as modulators of sodium channels” (VERTEX PHARMACEUTICALS INCORPORATED, priority 2013, dated 2017)
pIC50: −log10 of the molar value.

By UniProt entry, the sequences of proteins in these tests, tags left out.
UniProt Q9Y5Y9, whole entry: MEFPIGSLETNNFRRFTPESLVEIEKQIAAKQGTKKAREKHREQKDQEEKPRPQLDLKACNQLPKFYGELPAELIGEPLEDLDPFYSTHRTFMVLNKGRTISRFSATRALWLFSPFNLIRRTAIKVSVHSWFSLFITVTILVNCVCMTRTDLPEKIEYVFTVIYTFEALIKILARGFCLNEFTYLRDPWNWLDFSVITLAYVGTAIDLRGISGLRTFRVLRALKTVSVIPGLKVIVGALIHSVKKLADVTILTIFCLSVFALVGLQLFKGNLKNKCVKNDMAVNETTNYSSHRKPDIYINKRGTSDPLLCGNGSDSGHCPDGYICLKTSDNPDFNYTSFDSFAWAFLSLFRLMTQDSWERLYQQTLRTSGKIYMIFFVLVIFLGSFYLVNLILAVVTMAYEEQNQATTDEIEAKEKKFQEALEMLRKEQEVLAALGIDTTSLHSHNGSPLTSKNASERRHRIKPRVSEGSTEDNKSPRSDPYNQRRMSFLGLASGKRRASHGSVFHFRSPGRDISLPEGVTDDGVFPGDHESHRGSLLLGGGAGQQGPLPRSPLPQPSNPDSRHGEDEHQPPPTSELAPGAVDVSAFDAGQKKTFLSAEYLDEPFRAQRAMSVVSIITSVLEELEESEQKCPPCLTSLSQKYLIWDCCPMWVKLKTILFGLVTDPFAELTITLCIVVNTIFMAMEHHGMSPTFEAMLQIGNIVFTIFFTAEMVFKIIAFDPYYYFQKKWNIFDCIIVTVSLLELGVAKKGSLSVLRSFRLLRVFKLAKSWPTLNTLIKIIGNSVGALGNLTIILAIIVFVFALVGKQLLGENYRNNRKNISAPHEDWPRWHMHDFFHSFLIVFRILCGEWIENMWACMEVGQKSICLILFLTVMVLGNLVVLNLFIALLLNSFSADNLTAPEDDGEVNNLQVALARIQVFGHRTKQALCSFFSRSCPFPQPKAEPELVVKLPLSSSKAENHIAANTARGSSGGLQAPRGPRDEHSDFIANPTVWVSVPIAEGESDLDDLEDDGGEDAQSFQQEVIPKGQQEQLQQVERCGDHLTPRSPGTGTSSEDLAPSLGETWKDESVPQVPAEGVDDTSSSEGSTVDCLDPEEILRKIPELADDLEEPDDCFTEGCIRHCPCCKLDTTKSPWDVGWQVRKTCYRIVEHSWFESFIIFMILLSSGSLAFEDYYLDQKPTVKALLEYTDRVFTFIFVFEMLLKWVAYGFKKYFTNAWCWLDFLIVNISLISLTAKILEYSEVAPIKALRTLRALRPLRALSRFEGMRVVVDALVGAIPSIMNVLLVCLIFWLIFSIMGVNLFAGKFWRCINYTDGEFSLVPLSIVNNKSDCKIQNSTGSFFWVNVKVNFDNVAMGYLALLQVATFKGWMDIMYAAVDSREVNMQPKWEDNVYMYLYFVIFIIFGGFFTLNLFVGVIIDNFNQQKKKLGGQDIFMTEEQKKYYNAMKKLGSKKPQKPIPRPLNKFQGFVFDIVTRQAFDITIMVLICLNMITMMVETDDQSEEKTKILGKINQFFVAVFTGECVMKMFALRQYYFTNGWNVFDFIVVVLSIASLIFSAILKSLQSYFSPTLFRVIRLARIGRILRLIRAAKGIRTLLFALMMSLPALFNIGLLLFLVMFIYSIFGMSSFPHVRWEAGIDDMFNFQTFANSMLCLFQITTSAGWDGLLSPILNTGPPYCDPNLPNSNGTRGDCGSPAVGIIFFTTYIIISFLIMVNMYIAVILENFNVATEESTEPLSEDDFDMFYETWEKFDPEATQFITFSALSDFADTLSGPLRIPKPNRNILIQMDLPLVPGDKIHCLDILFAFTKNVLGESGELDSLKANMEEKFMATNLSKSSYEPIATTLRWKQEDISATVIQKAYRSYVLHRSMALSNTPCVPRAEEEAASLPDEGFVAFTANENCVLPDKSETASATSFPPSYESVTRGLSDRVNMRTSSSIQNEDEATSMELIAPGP

Target: human Nav1.8 (Homo sapiens (Human), UniProt Q9Y5Y9)
Assay: E-VIPR optical membrane potential assay with electrical stimulation
Format: cell-based
Conditions: HEK cells expressing human Nav1.8
Text: Sodium channels are voltage-dependent proteins that can be activated by inducing membrane voltage changes by applying electric fields. […] The instrument comprises a microtiter plate handler, an optical system for exciting the coumarin dye while simultaneously recording the coumarin and oxonol emissions, a waveform generator, a current- or voltage-controlled amplifier, and a device for inserting electrodes in well. Under integrated computer control, this instrument passes user-programmed electrical stimulus protocols to cells within the wells of the microtiter plate.
24 hours before the assay on E-VIPR, HEK cells expressing human Nav1.8 were seeded in 384-well poly-lysine coated plates at 15,000-20,000 cells per well. […] Cells were grown in vented cap flasks, in 90% humidity and 5% CO2.
To make the solution added volume of 10% Pluronic F127 stock equal to volumes of CC2-DMPE+DiSBAC6(3). […]
7) Read Plate on E-VIPR. […]
Data was analyzed and reported as normalized ratios of emission intensities measured in the 460 nm and 580 nm channels. […]
Control responses were obtained by performing assays in the presence of a compound with the desired properties (positive control), such as tetracaine, and in the absence of pharmacological agents (negative control). Responses to the negative (N) and positive (P) controls were calculated as above. […]

pIC50: 7.00
Substance: 2-(4-fluoro-2-methylphenoxy)-N-(6-oxo-1,6-dihydropyridin-3-yl)-5-(trifluoromethyl)benzamide [Compound 106]
